Literature values, collected in patent publication US5993783A, “Method and apparatus for pulmonary administration of dry powder α1-antitrypsin” (Inhale Therapeutic Systems, priority 1998, dated 1999).

Details: Nicolaysen et al. 1975

Substance: albumin tagged with Evans blue: albumin tagged with Evans blue, injected by Nicolaysen et al. to follow the dye in the lung interstitium
- time to appearance of the dye in the lymphatics (injected): ≤ 10 min
- time to appearance of dye within the interstitium (relative to the lymphatics): approximately twice as long
